Results: ChEMBL document CHEMBL1145380, “Optimization of 1,3,4-benzotriazepine-based CCK(2) antagonists to obtain potent, orally active inhibitors of gastrin-mediated gastric acid secretion” (J Med Chem, 2007)

Molecular target: T1, Gastrin/cholecystokinin type B receptor (Rattus norvegicus, UniProt P30553)
T1 sequence (P30553 whole entry): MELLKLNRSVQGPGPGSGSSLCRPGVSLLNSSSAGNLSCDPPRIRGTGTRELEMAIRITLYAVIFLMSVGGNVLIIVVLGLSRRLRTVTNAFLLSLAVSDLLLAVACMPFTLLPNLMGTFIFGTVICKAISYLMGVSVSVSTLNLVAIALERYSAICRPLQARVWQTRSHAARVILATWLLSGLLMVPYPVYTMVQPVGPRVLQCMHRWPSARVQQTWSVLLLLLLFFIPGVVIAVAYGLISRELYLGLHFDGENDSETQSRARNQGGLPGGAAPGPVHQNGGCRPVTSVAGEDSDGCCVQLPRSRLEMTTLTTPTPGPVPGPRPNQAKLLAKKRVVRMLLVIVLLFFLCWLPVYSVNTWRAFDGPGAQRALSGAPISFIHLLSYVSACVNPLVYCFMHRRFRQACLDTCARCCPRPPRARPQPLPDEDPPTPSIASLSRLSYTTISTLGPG
Assay: Antagonist activity at CCK2 receptor in perfused rat stomach assessed as inhibition of pentagastrin-stimulated gastric acid secretion
Type: functional, tissue-based
Conditions: read-out: pA2 (converted)

Kb: 7.59 nM
SMILES: Cc1ccccc1C(=O)CN1C(=O)N(CC(=O)Nc2cccc(C(=O)O)c2)N=C(C2CCCCC2)c2ccccc21
